Results as given in ChEMBL document CHEMBL4715726, “Identification, characterization, kinetics, and molecular docking of flavonoid constituents from Archidendron clypearia (Jack.) Nielsen leaves and twigs” (Bioorg Med Chem, 2016).

Sequences of proteins named here, by UniProt entry; tags and fusion partners are left off.
UniProt P34913, whole entry: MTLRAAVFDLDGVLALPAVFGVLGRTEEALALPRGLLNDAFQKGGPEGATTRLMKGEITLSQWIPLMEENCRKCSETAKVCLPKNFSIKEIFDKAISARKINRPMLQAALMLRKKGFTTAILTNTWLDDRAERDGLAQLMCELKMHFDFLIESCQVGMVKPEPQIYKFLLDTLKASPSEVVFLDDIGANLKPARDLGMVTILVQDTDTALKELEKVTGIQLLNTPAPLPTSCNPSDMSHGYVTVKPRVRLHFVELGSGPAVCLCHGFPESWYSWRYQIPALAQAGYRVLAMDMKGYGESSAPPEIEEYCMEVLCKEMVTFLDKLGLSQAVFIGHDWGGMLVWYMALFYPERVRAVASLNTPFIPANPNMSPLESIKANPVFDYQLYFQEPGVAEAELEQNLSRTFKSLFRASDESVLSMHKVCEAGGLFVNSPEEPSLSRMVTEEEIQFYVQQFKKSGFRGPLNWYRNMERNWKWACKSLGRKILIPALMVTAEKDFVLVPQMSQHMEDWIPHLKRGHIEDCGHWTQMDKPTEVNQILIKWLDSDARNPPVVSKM

Biological target: Bifunctional epoxide hydrolase 2 (Homo sapiens, UniProt P34913)
Test: Inhibition of sEH (unknown origin) assessed as reduction in 6-methoxy-2-naphthaldehyde formation using PHOME as substrate measured after 40 mins by fluorescence photometry analysis

IC50: 13.3 nM
SMILES: CCCCOC(=O)CCCCCCCCCCCNC(=O)NC12CC3CC(CC(C3)C1)C2
